test system: TNFα; test: Cot Monocyte TNFα Cell Based Assay; conditions: Homo sapiens, Monocyte, read-out: EC50 TNF, LPS-stimulated human monocytes, TNFα

Sequences of proteins named here, by UniProt entry; tags and fusion partners are left off. Residues count along the entry.
UniProt P41279, 30-397: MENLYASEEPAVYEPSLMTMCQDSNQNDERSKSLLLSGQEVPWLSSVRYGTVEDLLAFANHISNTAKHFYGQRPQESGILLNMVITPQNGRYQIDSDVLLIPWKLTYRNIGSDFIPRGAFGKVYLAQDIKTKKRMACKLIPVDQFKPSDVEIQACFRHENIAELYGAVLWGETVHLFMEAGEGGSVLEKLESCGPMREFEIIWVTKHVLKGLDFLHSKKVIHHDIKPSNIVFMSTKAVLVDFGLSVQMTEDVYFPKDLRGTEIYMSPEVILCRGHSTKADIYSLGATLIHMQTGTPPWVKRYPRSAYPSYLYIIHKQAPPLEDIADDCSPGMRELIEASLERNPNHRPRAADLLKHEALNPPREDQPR

**Q.** `CC(C)(C)CNc1c(C#N)cnc2c(C#N)cc(N[C@H](c3cn(C4(C(F)(F)F)CC4)nn3)c3cccc4ncsc34)cc12` [Example 66, (S)-6-((benzo[d]thiazol-7-yl(1-(1-(trifluoromethyl)cyclopropyl)-1H-1,2,3-triazol-4-yl)methyl)amino)-4-(neopentylamino)quinoline-3,8-dicarbonitrile] was tested. Which EC50 did it give?
**A.** The EC50 was 53 nM.

**Q.** Which EC50 does the source give for `Cc1ncccc1[C@H](Nc1cc(Cl)c2ncc(C#N)c(N[C@H](CCC#N)c3ccccc3)c2c1)c1cn(C2CC2)nn1` [Example 74, 8-chloro-4-(((R)-3-cyano-1-phenylpropyl)amino)-6-(((S)-(1-cyclopropyl-1H-1,2,3-triazol-4-yl)(2-methylpyridin-3-yl)methyl)amino)-quinoline-3-carbonitrile] here?
**A.** The EC50 was 14 nM.

**Q.** With `CC(C)(C)CNc1c(C#N)cnc2c(Cl)cc(N[C@H](c3cn(C4CC4)nn3)c3csc4c3CCN(C3COC3)C4)cc12` [Example 80, (S)-8-chloro-6-(((1-cyclopropyl-1H-1,2,3-triazol-4-yl)(6-(oxetan-3-yl)-4,5,6,7-tetrahydrothieno[2,3-c]pyridin-3-yl)methyl)amino)-4-(neopentylamino)-quinoline-3-carbonitrile] as the compound, how does the EC50 read?
**A.** Its EC50 is 23 nM.

**Q.** With `[2H]C(Nc1cc(Cl)c2ncc(C#N)c(NCC(C)(C)C)c2c1)(c1cn(C2CC2)nn1)c1ccc(F)nc1C` (stereo not shown) [Example 111, 8-chloro-6-(((1-cyclopropyl-1H-1,2,3-triazol-4-yl)(6-fluoro-2-methylpyridin-3-yl)methyl-d)amino)-4-(neopentylamino)quinoline-3-carbonitrile] as the compound, how does the EC50 read?
**A.** Its EC50 is 77 nM.

**Q.** With `[2H]C([2H])(Nc1c(C#N)cnc2c(Cl)cc(N[C@@]([2H])(c3ccc(F)nc3)c3cn(C4CC4)nn3)cc12)C(C)(C)C` [Example 112, (S)-8-chloro-6-(((1-cyclopropyl-1H-1,2,3-triazol-4-yl)(6-fluoropyridin-3-yl)methyl-d)amino)-4-((2,2-dimethylpropyl-1,1-d2)amino)quinoline-3-carbonitrile] as the compound, how does the EC50 read?
**A.** The EC50 was 61 nM.

**Q.** Which EC50 does the source give for `CCN1CCc2c([C@H](Nc3cc(Cl)c4ncc(C#N)c(Nc5ccc(F)c(Cl)c5)c4c3)c3c[nH]nn3)csc2C1` [Example 270, (S)-8-chloro-4-((3-chloro-4-fluoro-phenyl)amino)-6-(((6-ethyl-4,5,6,7-tetrahydrothieno[2,3-c]pyridin-3-yl)(1H-1,2,3-triazol-4-yl)methyl)-amino)quinoline-3-carbonitrile] here?
**A.** The EC50 was 666 nM.

**Q.** With `Cc1ncccc1[C@H](Nc1cc(Cl)c2ncc(C#N)c(Nc3ccc(F)c(Cl)c3)c2c1)c1cn(C(C)C)nn1` [Example 282, (S)-8-chloro-4-((3-chloro-4-fluorophenyl)amino)-6-(((1-isopropyl-1H-1,2,3-triazol-4-yl)(2-methylpyridin-3-yl)methyl)amino)-quinoline-3-carboni trile] as the compound, how does the EC50 read?
**A.** Its EC50 is 87 nM.

target: Human Cot (Homo sapiens (Human), UniProt P41279); test: High Throughput Cot Biochemical Assay; conditions: IC50 HTRF, Cot HTRF (TR-FRET KinEASE) biochemical assay, 400 μM ATP

**Q.** With `Cn1cccc([C@H](Nc2cc(C#N)c3ncc(C#N)c(NCC(C)(C)C)c3c2)c2cn(C3(C(F)(F)F)CC3)nn2)c1=O` [Example 844, (S)-6-(((1-methyl-2-oxo-1,2-dihydropyridin-3-yl)(1-(1-(trifluoromethyl)cyclopropyl)-1H-1,2,3-triazol-4-yl)methyl)amino)-4-(neopentylamino)quinoline-3,8-dicarbonitrile] as the compound, how does the IC50 read?
**A.** Its IC50 is 13 nM.

**Q.** Which IC50 does the source give for `COc1ccc([C@H](Nc2cc(C#N)c3ncc(C#N)c(NCC(C)(C)C)c3c2)c2cn(C3(C(F)(F)F)CC3)nn2)cn1` [Example 905, (S)-6-(((6-methoxypyridin-3-yl)(1-(1-(trifluoromethyl)cyclopropyl)-1H-1,2,3-triazol-4-yl)methyl)amino)-4-(neopentylamino)quinoline-3,8-dicarbonitrile] here?
**A.** Its IC50 is 15 nM.

**Q.** How did the IC50 turn out when `COc1c(C(Nc2cc(C#N)c3ncc(C#N)c(NCC(C)(C)C)c3c2)c2ccc(F)nc2C)nnn1C` (stereo not shown) [Example 908, 6-(((6-fluoro-2-methylpyridin-3-yl)(5-methoxy-1-methyl-1H-1,2,3-triazol-4-yl)methyl)amino)-4-(neopentyl-amino)quinoline-3,8-dicarbonitrile] was run?
**A.** The IC50 was 12 nM.

**Q.** For `CC(C)(C)CNc1c(C#N)cnc2c(Cl)cc(N[C@H](c3cn(C4(C(F)(F)F)CC4)nn3)c3cccc4c(Cl)nccc34)cc12` [Example 916, (S)-8-chloro-6-(((1-chloroisoquinolin-5-yl)(1-(1-(trifluoromethyl)cyclopropyl)-1H-1,2,3-triazol-4-yl)methyl)amino)-4-(neopentylamino)quinoline-3-carbonitrile], which IC50 is on record?
**A.** The IC50 was 13 nM.

**Q.** Which IC50 does the source give for `CC(C)(C)CNc1c(C#N)cnc2c(Cl)cc(N[C@H](c3nnn(C4(C(F)F)CC4)c3F)c3cccc4ncccc34)cc12` [Example 962, (S)-8-chloro-6-(((1-(1-(difluoromethyl)cyclopropyl)-5-fluoro-1H-1,2,3-triazol-4-yl)(quinolin-5-yl)methyl)amino)-4-(neopentylamino)quinoline-3-carbonitrile] here?
**A.** Its IC50 is 13 nM.

**Q.** Which IC50 does the source give for `COc1ccc([C@H](Nc2cc(Cl)c3ncc(C#N)c(NCC(C)(C)C)c3c2)c2nnn(C3(C(F)F)CC3)c2OC)c(C)n1` [Example 966, (S)-8-chloro-6-(((1-(1-(difluoromethyl)cyclopropyl)-5-methoxy-1H-1,2,3-triazol-4-yl)(6-methoxy-2-methylpyridin-3-yl)methyl)amino)-4-(neopentylamino)quinoline-3-carbonitrile] here?
**A.** Its IC50 is 15 nM.

same assay, conditions: IC50 HTRF, Cot HTRF (TR-FRET) biochemical assay

**Q.** `CC(C)(C)CNc1c(C#N)cnc2c(Cl)cc(N[C@H](c3cn(C(C)(C)C(F)F)nn3)c3cccc4ncccc34)cc12` [Example 693, (S)-8-chloro-6-(((1-(1,1-difluoro-2-methylpropan-2-yl)-1H-1,2,3-triazol-4-yl)(quinolin-5-yl)methyl)amino)-4-(neopentylamino)quinoline-3-carbonitrile] was tested. Which IC50 did it give?
**A.** Its IC50 is 15 nM.

**Q.** How did the IC50 turn out when `CC(C)(C)CNc1c(C#N)cnc2c(Cl)cc(N[C@@H](c3ccc4cccnc4c3)c3cn(C4(C(F)F)CC4)nn3)cc12` [Example 699, (S)-8-chloro-6-(((1-(1-(difluoromethyl)cyclopropyl)-1H-1,2,3-triazol-4-yl)(quinolin-7-yl)methyl)amino)-4-(neopentylamino)quinoline-3-carbonitrile] was run?
**A.** Its IC50 is 12 nM.

**Q.** Which IC50 does the source give for `Cc1nc(F)ccc1[C@H](Nc1cc(Cl)c2ncc(C#N)c(NCC(C)(C)CO)c2c1)c1cn(C2(C(F)F)CC2)nn1` [Example 746, (S)-8-chloro-6-(((1-(1-(difluoromethyl)cyclopropyl)-1H-1,2,3-triazol-4-yl)(6-fluoro-2-methylpyridin-3-yl)methyl)amino)-4-((3-hydroxy-2,2-dimethylpropyl)amino)quinoline-3-carbonitrile] here?
**A.** The IC50 was 13 nM.

**Q.** For `Cc1nc(F)ccc1[C@H](Nc1cc(Cl)c2ncc(C#N)c(NCC(C)(C)C)c2c1)c1cn(CC2(C(F)(F)F)CC2)nn1` [Example 751, (S)-8-chloro-6-(((6-fluoro-2-methylpyridin-3-yl)(1-((1-(trifluoromethyl)-cyclopropyl)methyl)-1H-1,2,3-triazol-4-yl)methyl)amino)-4-(neopentylamino)quinoline-3-carbonitrile], which IC50 is on record?
**A.** Its IC50 is 15 nM.

**Q.** With `COc1ncccc1[C@H](Nc1cc(Cl)c2ncc(C#N)c(NCC(C)(C)C)c2c1)c1cn(C2(C(F)(F)F)CC2)nn1` [Example 782, (S)-8-chloro-6-(((2-methoxypyridin-3-yl)(1-(1-(trifluoromethyl)cyclopropyl)-1H-1,2,3-triazol-4-yl)methyl)amino)-4-(neopentylamino)quinoline-3-carbonitrile] as the compound, how does the IC50 read?
**A.** Its IC50 is 23 nM.

**Q.** For `Cn1c(=O)ccc2c([C@H](Nc3cc(Cl)c4ncc(C#N)c(NCC(C)(C)C)c4c3)c3cn(C4(C(F)(F)F)CC4)nn3)cccc21` [Example 789, (S)-8-chloro-6-(((1-methyl-2-oxo-1,2-dihydroquinolin-5-yl)(1-(1-(trifluoromethyl)cyclopropyl)-1H-1,2,3-triazol-4-yl)methyl)amino)-4-(neopentylamino)quinoline-3-carbonitrile], which IC50 is on record?
**A.** Its IC50 is 13 nM.

**Q.** How did the IC50 turn out when `CC(C)(C)CNc1c(C#N)cnc2c(Cl)cc(N[C@@H](c3ccc(Cl)nc3)c3cn(C4(C(F)(F)F)CC4)nn3)cc12` [Example 793, (S)-8-chloro-6-(((6-chloropyridin-3-yl)(1-(1-(trifluoromethyl)cyclopropyl)-1H-1,2,3-triazol-4-yl)methyl)amino)-4-(neopentylamino)quinoline-3-carbonitrile] was run?
**A.** Its IC50 is 35 nM.

**Q.** How did the IC50 turn out when `Cc1nc(Cl)ccc1[C@H](Nc1cc(Cl)c2ncc(C#N)c(NCC(C)(C)C)c2c1)c1cn(C2(C(F)(F)F)CC2)nn1` [Example 794, (S)-8-chloro-6-(((6-chloro-2-methylpyridin-3-yl)(1-(1-(trifluoromethyl)-cyclopropyl)-1H-1,2,3-triazol-4-yl)methyl)amino)-4-(neopentylamino)quinoline-3-carbonitrile] was run?
**A.** The IC50 was 15 nM.

**Q.** How did the IC50 turn out when `Cc1ccc([C@H](Nc2cc(Cl)c3ncc(C#N)c(NCC(C)(C)C)c3c2)c2cn(C3(C(F)(F)F)CC3)nn2)cn1` [Example 795, (S)-8-chloro-6-(((6-methylpyridin-3-yl)(1-(1-(trifluoromethyl)cyclopropyl)-1H-1,2,3-triazol-4-yl)methyl)amino)-4-(neopentylamino)quinoline-3-carbonitrile] was run?
**A.** The IC50 was 34 nM.

same assay, conditions: read-out: IC50 HTRF; Cot HTRF (TR-FRET KinEASE) biochemical assay, 400 μM ATP

**Q.** Which IC50 does the source give for `COc1nccc2c([C@H](Nc3cc(Cl)c4ncc(C#N)c(NCC(C)(C)C)c4c3)c3cn([C@@H](C)CF)nn3)cccc12` [Example 932, 8-chloro-6-(((S)-(1-((S)-1-fluoropropan-2-yl)-1H-1,2,3-triazol-4-yl)(1-methoxylsoquinolin-5-yl)methyl)amino)-4-(neopentylamino)quinoline-3-carbonitrile] here?
**A.** Its IC50 is 14 nM.

**Q.** For `Cc1nc(F)ccc1[C@H](Nc1cc(Cl)c2ncc(C#N)c(NCC(C)(C)C)c2c1)c1nnn2c1OCCC2` [Example 985, (S)-8-chloro-6-(((6,7-dihydro-5H-[1,2,3]triazolo[5,l-b][1,3]oxazin-3-yl)(6-fluoro-2-methylpyridin-3-yl)methyl)amino)-4-(neopentylamino)quinoline-3-carbonitrile], which IC50 is on record?
**A.** Its IC50 is 13 nM.

same assay, conditions: read-out: IC50 HTRF; Cot HTRF (TR-FRET) biochemical assay

**Q.** How did the IC50 turn out when `Cc1nc(F)ccc1[C@H](Nc1cc(Cl)c2ncc(C#N)c(NCC(C)(C)C)c2c1)c1cn(CC(C)(C)C(F)(F)F)nn1` [Example 755] was run?
**A.** Its IC50 is 25 nM.

Source: US11066414B2, “Cot modulators and methods of use thereof” (Gilead Sciences, Inc., priority 2015, dated 2021)
